The values below come from US6680292B1 (The Salk Institute for Biological Studies, priority 1998, dated 2004).

Data set [1] has as its system all cell lines, both neuronal and non-neuronal.

As for `NC(=O)c1ncn([C@@H]2O[C@H](CO)[C@@H](O)[C@H]2O)n1` [Ribavirin, 1-(β-D-ribofuranosyl)-1H-1,2,4-triazole-3-carboxamide], the “cell number (toxic effect)” value in the data set on HCN cells is recorded as “decrease in cell number is clearly visible”. In data set [1], the toxic concentrations result is on record as “greater than 400 nM”.
